This note sets out measurements from patent US20170157251A1, “Bi-Specific Monovalent Diabodies That are Capable of Binding CD19 and CD3, and Uses Thereof” (MacroGenics, Inc., priority 2015, published 2017).

By UniProt entry, the sequences of proteins in these tests, tags left out. Where a name states a change or a piece, a line headed by the entry shows the natural chain unless it says otherwise. Residues count along the entry.
UniProt P07766, 23-126 limits assumed: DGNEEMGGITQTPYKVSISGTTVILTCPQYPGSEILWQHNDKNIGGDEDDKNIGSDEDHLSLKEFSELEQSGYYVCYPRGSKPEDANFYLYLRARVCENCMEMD

For the assay, the target named is T1, soluble human CD3ε/δ heterodimer and soluble human CD19-biotin (Homo sapiens, UniProt P07766+P15391).
T1 construct: coated with soluble human CD3ε/δ heterodimer; followed by addition of soluble human CD19-biotin
The assay is described as follows: Bifunctional ELISA, simultaneous engagement of both target antigens. The format is binding. The source says:
The plates were washed and the immune complex was detected with chemoluminescent substrate conjugated to streptavidin.
Background: An ELISA detects its analyte on a solid surface through an enzyme-linked reagent.

B1: Control DART 2: control DART capable of binding to fluorescein and CD19 (protein)
chain 1: ENVLTQSPATLSVTPGEKATITCRASQSVSYMHWYQQKPGQAPRLLIYDASNRASGVPSRFSGSGSGTDHTLTISSLEAEDAATYYCFQGSVYPFTFGQGTKLEIKGGGSGGGGEVKLDETGGGLVQPGRPMKLSCVASGFTFSDYWMNWVRQSPEKGLEWVAQIRNKPYNYETYYSDSVKGRFTISRDDSKSSVYLQMNNLRVEDMGIYYCTGSYYGMDYWGQGTSVTVSSASTKGEVAACEKEVAALEKEVAALEKEVAALEKGGGDKTHTCPPCPAPEAAGGPSVFLFPPKPKDTLMISRTPEVTCVVVDVSHEDPEVKFNWYVDGVEVHNAKTKPREEQYNSTYRVVSVLTVLHQDWLNGKEYKCKVSNKALPAPIEKTISKAKGQPREPQVYTLPPSREEMTKNQVSLWCLVKGFYPSDIAVEWESNGQPENNYKTTPPVLDSDGSFFLYSKLTVDKSRWQQGNVFSCSVMHEALHNHYTQKSLSLSPGK
chain 2: QAVVTQEPSLTVSPGGTVTLTCRSSTGAVTTSNYANWVQQKPGQAPRGLIGGTNKRAPWTPARFSGSLLGGKAALTITGAQAEDEADYYCALWYSNLWVFGGGTKLTVLGGGGSGGGGEVKLDETGGGLVQPGRPMKLSCVASGFTFSDYWMNWVRQSPEKGLEWVAQIRNKPYNYETYYSDSVKGRFTISRDDSKSSVYLQMNNLRVEDMGIYYCTGSYYGMDYWGQGTSVTVSSASTKGKVAACKEKVAALKEKVAALKEKVAALKE
modifications: Amino Acid Sequence of the First Polypeptide Chain of Control DART 2; Amino Acid Sequence of the Second Polypeptide Chain of Control DART 2
Take B1: the “simultaneous binding to both CD19 and CD3” value was “Neither Control DART 1 (▪) nor Control DART 2 (▴) were capable of binding to both targets simultaneously”.
